Measured values: paper PMC5733478, “A Non-imaging High Throughput Approach to Chemical Library Screening at the Unmodified Adenosine-A3 Receptor in Living Cells” (Frontiers in Pharmacology, 2017)
Where a name gives a salt, the structure may show the parent alone.

Sequences of proteins named here, by UniProt entry; tags and fusion partners are left off.
UniProt P0DMS8, whole entry: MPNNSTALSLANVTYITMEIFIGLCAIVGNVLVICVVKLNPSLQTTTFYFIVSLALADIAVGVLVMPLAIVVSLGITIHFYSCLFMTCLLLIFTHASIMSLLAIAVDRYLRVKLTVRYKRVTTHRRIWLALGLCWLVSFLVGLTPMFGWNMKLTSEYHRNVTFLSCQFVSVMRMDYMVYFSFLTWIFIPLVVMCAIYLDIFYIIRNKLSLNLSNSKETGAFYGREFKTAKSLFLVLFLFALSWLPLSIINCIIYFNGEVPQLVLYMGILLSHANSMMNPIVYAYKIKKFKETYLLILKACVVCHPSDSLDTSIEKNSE
UniProt P30542, whole entry: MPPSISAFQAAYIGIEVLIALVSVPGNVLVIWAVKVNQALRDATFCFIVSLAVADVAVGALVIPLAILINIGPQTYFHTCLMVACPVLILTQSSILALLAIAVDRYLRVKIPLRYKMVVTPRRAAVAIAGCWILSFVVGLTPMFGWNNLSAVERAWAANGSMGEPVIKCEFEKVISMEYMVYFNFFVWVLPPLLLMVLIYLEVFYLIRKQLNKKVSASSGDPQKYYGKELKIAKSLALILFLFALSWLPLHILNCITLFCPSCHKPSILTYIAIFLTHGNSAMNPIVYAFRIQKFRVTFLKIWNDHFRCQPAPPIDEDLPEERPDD

Molecular target: human A3AR (Homo sapiens, UniProt P0DMS8)
Assay: LOPAC library primary screen: single concentration (10 μM) inhibition of 25 nM CA200645 binding, PHERAstar FS
Conditions: not given

| Compound | % 25 nM CA200645 binding |
| --- | --- |
| CC1CNCCN1S(=O)(=O)c1cccc2cnccc12.Cl.Cl (stereo not shown) | 103.8 ± 5.9% |
| Cl.N=C(N)NC(=N)Nc1cccc(Cl)c1 | 103.6 ± 13.0% |
| C[C@]12CC[C@@H](O)C[C@@H]1CC[C@@H]1[C@@H]2CC[C@]2(C)[C@@H](C(=O)CO)CC[C@@H]12 | 103.6 ± 6.1% |
| Cl.NCCc1ccc(S(=O)(=O)F)cc1 | 103.5 ± 4.8% |
| Cc1ccc(S(=O)(=O)N[C@@H](CCCCN)C(=O)CCl)cc1.Cl | 103.9 ± 14.0% |
| CC(N)(C(=O)O)c1ccc(C(=O)O)cc1 (racemic) [(±)-alpha-Methyl-4-carboxyphenylglycine] | 103.5 ± 10.0% |
| Nc1ccn([C@H]2CC[C@@H](CO)O2)c(=O)n1 [2',3'-dideoxycytidine] | 103.6 ± 6.0% |
| Nc1cc(=O)[nH]c(N)n1 [2,4-Diamino-6-pyrimidinone] | 104.1 ± 13.8% |
| CCCCCC(O)CCCC(=O)O.[Na] (stereo not shown) [5-hydroxydecanoic acid sodium] | 104.0 ± 7.6% |
| CC[C@@H]1C(=O)OC[C@@H]1Cc1cncn1C.Cl [(+)-Pilocarpine hydrochloride] | 103.9 ± 1.7% |
| C[C@@]12N[C@@H](Cc3ccccc31)c1ccccc12.O=C(O)/C=C\C(=O)O [(-)-MK-801 hydrogen maleate] | 104.1 ± 10.2% |
| C=CCc1ccccc1OCC(O)CNC(C)C (stereo not shown) [Alprenolol hydrochloride] | 104.1 ± 15.8% |
| CCN(CC)CCn1c(=O)c(Cc2ccc(OC)cc2)nc2ccccc21.Cl [Caroverine hydrochloride] | 104.5 ± 21.3% |
| COc1cc2c(c(OC)c1OC)-c1ccc(OC)c(=O)cc1[C@@H](NC(C)=O)CC2 [Colchicine] | 93.8 ± 5.1% |
| COc1cc(C(=O)OCCCN2CCCN(CCCOC(=O)c3cc(OC)c(OC)c(OC)c3)CC2)cc(OC)c1OC [Dilazep hydrochloride] | 103.7 ± 12.7% |
| COc1ccc(NC(=O)c2ccc(-c3ccc(-c4noc(C)n4)cc3C)cc2)cc1N1CCN(C)CC1.Cl.O [GR 127935 hydrochloride hydrate] | 104.2 ± 8.3% |
| COC(=O)N1CCN(C(=O)Cc2ccc(Cl)c(Cl)c2)C(CN2CCCC2)C1.O=C(O)/C=C/C(=O)O (stereo not shown) [GR-89696 fumarate] | 104.3 ± 9.0% |
| Cc1nccc2c1[nH]c1ccccc12 [Harmane] | 104.5 ± 8.0% |
| C[N+]1(C)CCOC(O)(c2ccc(-c3ccc(C4(O)C[N+](C)(C)CCO4)cc3)cc2)C1 (stereo not shown) [Hemicholinium-3] | 104.5 ± 15.9% |
| NC(N)=NOCC[C@H](N)C(=O)O.O=S(=O)(O)O [L-Canavanine sulfate] | 104.0 ± 8.6% |
| C[C@](N)(Cc1ccc(O)cc1)C(=O)O [L-alpha-Methyl-p-tyrosine] | 104.3 ± 4.3% |

| Compound | % 25 nM CA200645 binding |
| --- | --- |
| CSc1ccccc1N1CCN(CCCCCC(=O)NC2CCCc3ccccc32)CC1 (stereo not shown) [LP44] | 103.8 ± 8.7% |
| CCN(CC)CC(=O)Nc1c(C)cccc1C [Lidocaine hydrochloride] | 102.4 ± 8.9% |
| COc1ccccc1CNCCCCCCNCCCCCCCCNCCCCCCNCc1ccccc1OC.Cl.Cl.Cl.Cl [Methoctramine tetrahydrochloride] | 103.6 ± 10.6% |
| CC(=O)Oc1cc(C(C)C)c(OCCN(C)C)cc1C [Moxisylyte hydrochloride] | 103.5 ± 2.3% |
| CCOC(=O)C1=C(C)NC(C)=C(C(=O)OCC)C1c1c(F)c(F)c(F)c(F)c1F [Nemadipine-A] | 104.1 ± 11.6% |
| CC(CCc1ccccc1)NC(C)C(O)c1ccc(O)cc1 (stereo not shown) [Nylidrin hydrochloride] | 103.7 ± 6.3% |
| Cc1cc(C(C)(C)C)c(O)c(C)c1CC1=NCCN1 [Oxymetazoline hydrochloride] | 103.9 ± 10.0% |
| CCCCC1C(=O)N(c2ccccc2)N(c2ccccc2)C1=O [Phenylbutazone] | 104.5 ± 10.1% |
| O=C1NC(=O)C(c2ccccc2)(c2ccccc2)N1 [Phenytoin sodium] | 103.8 ± 12.2% |
| CCN(CC)CCOC(=O)c1ccc(N)cc1 [Procaine hydrochloride] | 104.5 ± 8.1% |
| O=C(O)c1cccnc1C(=O)O [Quinolinic acid] | 103.7 ± 10.0% |
| CC(C)NC[C@H](O)c1ccc(O)c(O)c1.O=C(O)C(O)C(O)C(=O)O [R(-)-Isoproterenol (+)-bitartrate] | 103.8 ± 21.4% |
| Br.COc1ccc(-c2ccc(=N)n(CCCC(=O)O)n2)cc1 [SR-95531] | 103.5 ± 3.4% |
| CC1=C(CC(=O)O)c2cc(F)ccc2/C1=C\c1ccc([S+](C)[O-])cc1 (stereo not shown) [Sulindac] | 103.7 ± 16.6% |
| CC/C(=C(\c1ccccc1)c1ccc(OCCN(C)C)cc1)c1ccccc1 [Tamoxifen citrate] | 104.2 ± 20.7% |
| CC(CN(C)C)CN1c2ccccc2CCc2ccccc21 (stereo not shown) [Trimipramine maleate] | 104.3 ± 7.1% |
| N#C/C(=C\c1ccc(O)c(O)c1)C(N)=S [Tyrphostin 47] | 104.0 ± 4.7% |
| COc1ccc(CCN(C)CCc2ccc(OC)c(OC)c2)cc1OC.Cl [YS-035 hydrochloride] | 103.5 ± 12.5% |
| JL-18 | 96.2 ± 7.5% |
| LE 300 | 98.5 ± 4.5% |
| Phenylbenzene-omega-phosphono-alpha-amino acid | 96.2 ± 4.8% |

Same assay, conditions: compounds tested at 10 µM; % of control wells (1% DMSO and 25 nM CA200645); whole live cells expressing the A3AR; mean ± SD, three experiments in duplicate

| Compound | % 25 nM CA200645 binding |
| --- | --- |
| COc1cc2c(cc1O)CC[C@@H]1[C@@H]2CC[C@]2(C)[C@@H](O)CC[C@@H]12 [2-methoxyestradiol] | 104.4 ± 10.2% |
| CCN(CC)CCOCCOC(=O)C1(c2ccccc2)CCCC1 [Carbetapentane citrate] | 104.5 ± 6.7% |
| O=C(N[C@H]1CN2CCC1CC2)c1cc2ccoc2cn1 [PHA-543613] | 103.8 ± 13.6% |

Molecular target: T1, human A1AR (Homo sapiens, UniProt P30542)
T1 construct: expressed in transfected cells
Assay: HTS (PHERAstar FS) fluorescent ligand competition binding in live CHO cells, 25 nM CA200645 tracer
Conditions: CHO cells expressing A1AR, 25 nM CA200645, PHERAstar HTS assay, mean ± SEM

| Compound | pKi A1AR CA200645 |
| --- | --- |
| O=C(Cc1ccccc1)Nc1nc2ccc(Cl)cc2c2nc(-c3ccco3)nn12 [MRS1220] | 7.35 ± 0.19 |
